Antibody variant affinities, Ab-95 light chain, assay 2

All variants were tested on one target, the spike HR2 peptide PDVDLGDISGINAS (SARS-CoV-2).

Ab-95 is the parent antibody, in scFv form: VH, then the linker GGGGSGGGGSGGGGS, then VL. The heavy chain is unchanged in all variants.
VH: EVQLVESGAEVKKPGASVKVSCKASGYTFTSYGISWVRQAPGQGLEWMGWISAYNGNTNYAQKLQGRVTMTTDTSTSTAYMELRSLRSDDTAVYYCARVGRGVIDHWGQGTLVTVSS
VL: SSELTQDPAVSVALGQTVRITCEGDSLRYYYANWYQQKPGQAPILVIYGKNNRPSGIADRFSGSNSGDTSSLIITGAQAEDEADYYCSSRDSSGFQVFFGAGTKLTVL

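In library AAYL52, one, two or three CDR residues were substituted; doubles and triples were drawn at random. AlphaSeq pools MATa yeast showing the antibodies with MATalpha yeast showing the peptide. Pairs that bind mate more often; barcode pairs of the diploids are counted by sequencing. A regression on co-assayed BCL2-family reference pairs converts the normalised counts of each replicate to an apparent Kd. Mating was done three times.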

Variants are written as CDR1, CDR2 and CDR3 of the light chain (limits as in the source). Parent: EGDSLRYYYAN, GKNNRPS, SSRDSSGFQVF.
Numbers give log10(Kd / nM), so 0 is 1 nM and 3 is 1 µM. Smaller is tighter.
Averages over replicates are reported, and they cover detected replicates only.
"nd" marks a missing value. The strain was present, yet no cells mated with the target were sequenced in any replicate, which points to weak or no binding.
Background: pairings of library AAYL52 with three empty control strains gave a value in 28% of cases (median 3.91, 5th percentile 2.90). Values in that range, when seen in few replicates, are hard to tell from nonspecific mating.

| CDR-L1 | CDR-L2 | CDR-L3 | mean log10 Kd (nM) | detected |
|---|---|---|---|---|
| EGDSLRYIAAN | GKNNRPS | SSADSSGFQVF | 2.71 | 3/3 |
| EGDSLRIMYAN | GKNNRPS | SSRDSSTFQVF | 3.37 | 1/3 |
| EGDSLRYYYAT | GLNNRPS | SQRDSSGFQVF | 5.34 | 1/3 |
| EGDSLRYMYAN | GKNNRPS | SSRDSSGNQSF | 1.67 | 3/3 |
| EGDSLRYYYAN | GKNCRPS | SSRDSSGFQEV | 4.04 | 2/3 |
| EGDSLAYYYAN | GKNNRPS | SSRQMSGFQVF | 2.21 | 3/3 |
| EGDQQRYYYAN | GKNNRPS | ESRDSSGFQVF | 2.73 | 3/3 |
| ECDSLRYYYAN | GKNNRPS | SSRDSSGFQDF | 3.53 | 2/3 |
| EGDSLRYYYAN | GKNNRPS | SSRDSSGWQVC | 3.36 | 3/3 |
| WGDSLRYYYAN | GTNNRPS | SSRDSSGFQVK | 3.69 | 1/3 |
| WGDSLRYYYAN | GKNNRPS | SSPDFSGFQVF | 4.02 | 2/3 |
| EGDSLRGYYAN | GKNNRPS | SSRDSSGEQAF | 3.23 | 3/3 |
| EGDSLRYYYAN | GKNNRPS | SSRDYSGFDVM | 1.93 | 3/3 |
| EGDSLRYYYAN | GFNNRPS | SSRDSSDVQVF | 3.74 | 3/3 |
| EGKFLRYYYAN | GKNNRPS | SLRDSSGFQVF | 4.60 | 2/3 |
| EGDSLRYYKAN | GKNNPPS | SWRDSSGFQVF | 4.00 | 2/3 |
| EGDSLRYYYAT | GKNYRLS | SSRDSSGFQVF | 3.94 | 2/3 |
| EGDSLRYYYAN | GKNNRFS | SSQDSSGFQVF | 2.99 | 2/3 |
| EGDSLRYYYAN | GPNNRPS | SSRDSSGFQIP | 2.95 | 3/3 |
| EGDSGRYYYGN | GKNNRPS | SSRDSSGFQVF | 2.11 | 3/3 |
| EGDSQRYYYAN | GKNNRPS | SSYDYSGFQVF | 4.25 | 2/3 |
| VGDSLRYYYAN | GKKNRPH | SSRDSSGFQVF | 3.06 | 2/3 |
| EGDSVRYYYAN | GKNNRPA | SSRLSSGFQVF | nd | 0/3 |
| TGDSLRYYYAN | NKNYRPS | SSRDSSGFQVF | 3.21 | 3/3 |
| EGDSLYYYYAN | GKNNTPS | SSRDMSGFQVF | 3.80 | 3/3 |
| EWDSLGYYYAN | GKNNRPS | SSRDSSGFPVF | 3.77 | 2/3 |
| EGDSLRYVYAN | GKNNRPS | SLRDSSGFQIF | 3.11 | 1/3 |
| EGDSLRYYYAN | GKHNRPS | SDRDSSGFQHF | 3.21 | 2/3 |
| EGDSLRYYYDN | GKNNMPS | SSRDSSGFQVF | nd | 0/3 |
| EGDYYRYYYAN | GKNNRPS | SSMDSSGFQVF | 3.79 | 1/3 |
| EGVSLRYYYAN | GKNNRPP | SSRDSNGFQVF | 2.87 | 3/3 |
| EGDSLRYYWAN | FKNNRPS | SSRDSSGFQDF | nd | 0/3 |
| EGDSLRYEYAN | GKNNTHS | SSRDSSGFQVF | 2.65 | 3/3 |
| EGDSLRYYYAP | GKNNRPS | SSRDSIGFQVT | 4.50 | 2/3 |
| EGDSLRYYELN | GKNNRPS | SSRDSSGFQVF | 2.63 | 3/3 |
| EGDSLRYYYAN | GKNNDPS | SPRDSAGFQVF | 4.55 | 2/3 |
| EGRSLRPYYAN | GKNNRPS | SSRPSSGFQVF | 2.91 | 3/3 |
| EGDSLRYYYAN | PKNNRPS | SSRDSPGFQLF | 4.03 | 2/3 |
| EGDSLRDYYAN | GKNWRPS | SSRRSSGFQVF | 2.49 | 1/3 |
| EGYSLRYFYAD | GKNNRPS | SSRDSSGFQVF | 4.67 | 2/3 |
| ENWSLRYYYAN | KKNNRPS | SSRDSSGFQVF | 4.29 | 2/3 |
| EGDSLSYYYAN | GKINRPS | ISRDSSGFQVF | 4.40 | 2/3 |
| EGDSLRYYYAE | GKNNRPC | SSRDSSGCQVF | 3.67 | 3/3 |
| EGDSLLYYYDN | GKNNRPS | SSRDSSPFQVF | 4.38 | 2/3 |
| EGDSLRAYYAN | GKNNRPS | SSRDSSGKQDF | 2.52 | 3/3 |
| EGDSLRYYYAH | GKNNRTS | SSRDSSGFEVF | 2.90 | 1/3 |
| EGDSLRYYYAL | GKNNRPS | SSSDSSGFQLF | 5.44 | 1/3 |
| EGDELRYYYAN | GKNNRPS | SSRDSGGMQVF | 3.61 | 2/3 |
| EGDSFRYYYAN | IKNNRPS | SSRDSSGFQSF | 4.14 | 2/3 |
| EGDCLRYYYHN | GKDNRPS | SSRDSSGFQVF | nd | 0/3 |
| EGSSLRYYCAN | NKNNRPS | SSRDSSGFQVF | 2.44 | 3/3 |
| EGDSLRYYYAF | DKNNRPS | SSRESSGFQVF | 4.13 | 1/3 |
| EGDSLRYYYAN | GWNNRPS | SSRDSQGFQVP | 4.58 | 2/3 |
| EGDSLRYAYAN | GKNNLPS | SSRDSSGFQVC | 1.82 | 3/3 |
| EGDSLRYYYAV | GKNNIPS | SSRKSSGFQVF | nd | 0/3 |
| EGDSFRYYYAN | GKNNRPS | SSRASSGFEVF | 2.67 | 3/3 |
| EGDSLRYYYAM | GKNNRPS | SSRDSSGGQFF | 3.70 | 2/3 |
| EGDSLRYYYAN | HKNNRGS | DSRDSSGFQVF | 3.64 | 2/3 |
| EGDSLWYYYAN | GKNNRPS | SSYDISGFQVF | 3.67 | 2/3 |
| EGDSYRYYYAN | GKNNRPS | SSRDRTGFQVF | 3.61 | 3/3 |
| EGDSLRYYYAN | GKNNRPS | SSRDMSGFQIF | 2.35 | 2/3 |
| EDDALRYYYAN | GKNNRMS | SSRDSSGFQVF | 1.65 | 3/3 |
| AGDSLRYYAAN | GKNNRPS | SSRDSSGFQLF | 1.87 | 3/3 |
| EGDSLRFYYAN | GKNNRPS | SSRDNSFFQVF | 3.77 | 1/3 |
| EGDSLRYTYAQ | GKMNRPS | SSRDSSGFQVF | 3.00 | 3/3 |
| EGDSLRLYYAN | GLNNRPS | YSRDSSGFQVF | 3.97 | 2/3 |
| EGDSLRYYFAN | GKNNRDS | SSRDSSGFQVF | 2.77 | 3/3 |
| EGDSLREYYAN | GKNNRPS | SRRDSSGFQVF | 2.25 | 3/3 |
| EGDSLRYYYAN | GKNIRDS | SSRDMSGFQVF | 3.12 | 3/3 |
| EIDSLRYYYAN | GKNNRPS | SSRDNSGFSVF | 4.51 | 3/3 |
| IGDSLRYYYAN | GLNNRPS | SSRDSSTFQVF | 3.00 | 1/3 |
| EGDSKRYYCAN | GKNNRPS | MSRDSSGFQVF | 1.99 | 3/3 |
| ERDSLRYYYAN | GKNNRPS | SSRDSWGFHVF | 3.77 | 3/3 |
| EGDSLRYSYAN | GKNNRPS | SGVDSSGFQVF | nd | 0/3 |
| EYDSLRYYYAN | GWNNMPS | SSRDSSGFQVF | 4.13 | 3/3 |
| EGDCDRYYYAN | GKNNRPS | SSRDSSDFQVF | 4.48 | 3/3 |

Excerpt, the first 11 entries:

| CDR-L1 | CDR-L2 | CDR-L3 | mean log10 Kd (nM) | detected |
|---|---|---|---|---|
| EGDSLRYIAAN | GKNNRPS | SSADSSGFQVF | 2.71 | 3/3 |
| EGDSLRIMYAN | GKNNRPS | SSRDSSTFQVF | 3.37 | 1/3 |
| EGDSLRYYYAT | GLNNRPS | SQRDSSGFQVF | 5.34 | 1/3 |
| EGDSLRYMYAN | GKNNRPS | SSRDSSGNQSF | 1.67 | 3/3 |
| EGDSLRYYYAN | GKNCRPS | SSRDSSGFQEV | 4.04 | 2/3 |
| EGDSLAYYYAN | GKNNRPS | SSRQMSGFQVF | 2.21 | 3/3 |
| EGDQQRYYYAN | GKNNRPS | ESRDSSGFQVF | 2.73 | 3/3 |
| ECDSLRYYYAN | GKNNRPS | SSRDSSGFQDF | 3.53 | 2/3 |
| EGDSLRYYYAN | GKNNRPS | SSRDSSGWQVC | 3.36 | 3/3 |
| WGDSLRYYYAN | GTNNRPS | SSRDSSGFQVK | 3.69 | 1/3 |
| WGDSLRYYYAN | GKNNRPS | SSPDFSGFQVF | 4.02 | 2/3 |

Reference: Engelhart et al. 2022, doi:10.1038/s41597-022-01779-4. File: FLAb, binding data.